Experimental data taken from patent US20080166345A1, “MEDICAMENTS COMPRISING GENE RECOMBINANT ANTIBODY AGAINST GANGLIOSIDE GD3” (KYOWA HAKKO KOGYO CO., LTD., priority 2001, published 2008).

Tested on: GD3 expressing B16 cell B16•29-10
Experiment: Antitumor effects of KM871 with human IL-2, mouse syngeneic graft model
Type: in vivo, C57 BL/6 mouse
Settings: FIG. 4; KM871 50 μg/day, IL-2 10 μg/day, days 6-14, tail vein
Protocol: The GD3 expressing B16 cell B16•29-10 obtained in c. of the item (2) of Example 1 was suspended in PBS to give a density of 1×10^8 cells/ml, and 50 μl of the suspension was inoculated under the abdominal side skin of a C57 BL/6 mouse (male, 7-week-old, manufactured by Charles River). Six days after the tumor inoculation, the tumor diameter was measured using slide calipers to calculate the tumor volume by the following equation, and individuals having the value within the range of 10 to 80 mm^3 were selected.
Tumor volume=(width)^2×length×0.5
They were divided into groups in such a manner that the average tumor volume became uniform, and then the following administration groups of A to D were arranged to carry out continuous administration of the following agents from the tail vein once a day for 8 days (from the 6th day to 14th day).
C. IL-2 (Human Recombinant IL-2, Manufactured by Peprotech) Alone Group:
D. KM871+IL-2 Combined Administration Group:
The test was carried out using 5 animals for each group. Each agent was prepared to 200 μl per animal by diluting with a citrate buffer (an aqueous solution of 10 mM citric acid and 150 n sodium chloride, adjusted to pH 6 with sodium hydroxide). From the 6th day after the inoculation, the tumor volume was periodically measured, and the antitumor effects were judged by comparing the mean value of specific volume V/V0 in each group.

## IL-2: human IL-2; Immunase 35 (Shionogi) in xenograft test, human recombinant IL-2 (Peprotech) in syngeneic test [reference compound]
  tumor growth inhibitory effects (mean V/V0): antitumor effects were not found
